MC4R ag barr – agonists of human melanocortin 4 receptor (MC4R) beta-arrestin | P32245 | U2OS MC4R beta-arrestin complementation, luminescence; percent of melanotan II response, DMSO zero | activation, % at 8.9 µM | 360,000 compounds, 0.98% hits;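 active = activation above a per-plate cutoff, the mean activation of sample wells on that plate plus 3 SD, cut at about 8% in these data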
Yeast UUG start – yeast start codon fidelity modulation; actives 0.13% (n = 350,000); activity score, % at 18.7 µM; S. cerevisiae UUG-firefly luciferase reporter, luminescence/redox ratio;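 active = replicate mean at a twofold rise or more, about +100% in these data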;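 note: firefly luciferase made from a UUG start codon reports start codon fidelity; reporter light over untreated wells divided by growth signal over untreated wells; some hits fall short of that in this replicate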
ASAP1 GAP inh – blocks human ASAP1-stimulated Arf1 GTP hydrolysis. Q9ULH1. GDP FP detection. inhibition, % at 16.5 µM. 360,000 compounds, 0.19% hits; in the data active = inhibition above about 25%;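 also: 0% = vehicle with enzyme and substrate and 100% = no enzyme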
MC4R antagonist – human MC4R antagonism in cAMP assay | 360,000 compounds, 0.48% hits | inhibition, % at 6.5 µM | MC4R-expressing cells, MTII-stimulated cAMP, LANCE TR-FRET | AID 540295;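 active = inhibition above its plate's cutoff, the mean of tested wells on that plate plus 3 SD, cut at about 29% in these data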;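 also: 0% = Melanotan II alone and 100% = Melanotan II plus saturating MCL0020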
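Material: U2OS-MC4R stable cell line | Reagent: Melanotan II challenge after compound preincubation | Doses: One concentration, 6.5 µM nominal | Incubation: 30-min compound preincubation, 1-h Melanotan II challenge, 1-h detection, room temperature | Signal: TR-FRET cAMP assay | Replicates: One well per compound, no replicates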
ARFGAP1 inhibitor – rat ARFGAP1 inhibition. inhibition, % at 16.5 µM. 360,000 compounds, 0.26% hits. AID 651572. Arfgap1-stimulated ARF1 GTP hydrolysis, GDP FP detection;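 active = inhibition above a per-plate limit, mean inhibition of low control wells plus 3 SD, cut at about 25% in these data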;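 also: 0% = DMSO wells with enzyme and 100% = wells lacking Arfgap1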
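Material: truncated rat Arfgap1 GAP domain; Incubation: compound-enzyme preincubation 20 min, reaction 120 min, detection 60 min, 25 °C; Read-out: percent inhibition of Arfgap1-stimulated GTP hydrolysis; Technique: FP, GDP Alexa 633 tracer displaced from anti-GDP antibody, 620/688 nm; Controls: No-Arfgap1 wells (100%) versus DMSO full-reaction wells (0%); Replication: single well per compound.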
CendR NRP1 mod – alters CendR peptide binding to human NRP-1; FAM-RPARPAR peptide binding to NRP-1, fluorescence polarization; inhibition, % at 25 µM; 360,000 compounds, 0.85% hits; AID 602438;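 active = inhibition or corrected inhibition above about 18%, plus a signal ratio from 0.5 to 1.5, limit read from the data, passing the limit was not always enough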
* marks the source's active call; other numbers are inactive results; · = no result. The list is not random: actives were taken first. Their share in the collection is about 2.3%.

structure | MC4R ag barr | Yeast UUG start | ASAP1 GAP inh | MC4R antagonist | ARFGAP1 inhibitor | CendR NRP1 mod
O=C(CCl)N(c1ccccc1)c1c[nH]c2ccccc12 | 19* | · | 0 | 6 | -8 | 3
CC(=O)n1cc(N(C(=O)CCl)c2ccccc2)c2ccccc21 | 17* | -1 | -2 | 22 | 17 | -4
O=Cc1[nH]c2ccccc2c1N(C(=O)CCl)c1ccc([N+](=O)[O-])cc1 | 0 | -5 | 1 | 16 | -15 | -9
CO[C@H]1CN(C)C(=O)c2cc(NC(=O)NC3CCCCC3)ccc2OC[C@@H](C)NC[C@@H]1C | · | -5 | · | · | · | ·
CNC[C@H]1Oc2c(cccc2N(C)C)C(=O)N([C@@H](C)CO)C[C@H]1C | · | -21 | · | · | · | ·
C[C@@H]1CN([C@@H](C)CO)C(=O)c2cc(NC(=O)c3ccncc3)ccc2O[C@@H](C)CCCCO[C@@H]1CN(C)S(C)(=O)=O | · | 9 | · | · | · | ·
CSc1ccc(C2C(C(=O)c3ccco3)=C(O)C(=O)N2c2nnc(SC)s2)cc1 (centres undefined) | -2 | -16 | -13 | 33* | -22 | 135
Cc1nnc(N2C(=O)C(O)=C(C(=O)c3ccco3)C2c2ccc(F)cc2)s1 (centres undefined) | 1 | 35 | 6 | 5 | -4 | 28
C[C@@H]1CN([C@H](C)CO)C(=O)c2cc(NC(=O)Nc3cccc4ccccc34)ccc2O[C@H]1CN(C)Cc1ccc(Cl)c(Cl)c1 | · | -1 | · | · | · | ·
CC(Oc1cccc(Cl)c1)C(=O)Nc1ccccc1C(=O)N1CCCCC1 (centres undefined) | 1 | -13 | 3 | 10 | 0 | -2
CC(Oc1cccc(Cl)c1)C(=O)Nc1ccccc1N1CCCCC1 (centres undefined) | 1 | -2 | -2 | 2 | 5 | 28*
CN(C)CCCN(C(=O)CCc1ccccc1)c1nc2ccc(Br)cc2s1 | 9.5* | -6 | -10 | 1 | -1 | -12

A different layout for 2 compounds above.
Order of results – MC4R ag barr	Yeast UUG start	ASAP1 GAP inh	MC4R antagonist	ARFGAP1 inhibitor	CendR NRP1 mod
O=Cc1[nH]c2ccccc2c1N(C(=O)CCl)c1ccc([N+](=O)[O-])cc1
 : 0	-5	1	16	-15	-9
CO[C@H]1CN(C)C(=O)c2cc(NC(=O)NC3CCCCC3)ccc2OC[C@@H](C)NC[C@@H]1C
 : ·	-5	·	·	·	·

Additional entries:
structure | MC4R ag barr | Yeast UUG start | ASAP1 GAP inh | MC4R antagonist | ARFGAP1 inhibitor | CendR NRP1 mod
CN(C)CCCN(C(=O)CCc1ccccc1)c1nc2ccc(F)cc2s1 | -1 | · | -1 | -2 | 17 | -14
C[C@H](CO)N1C[C@H](C)[C@H](CN(C)S(=O)(=O)c2ccc(Cl)cc2)OCCCC[C@H](C)Oc2ccc(NC(=O)NC3CCCCC3)cc2C1=O | · | -4 | · | · | · | ·
COC(=O)c1cccc(NC(=O)c2cccc(OC)c2)c1 | -2 | 2 | 3 | -2 | -8 | 23*
CCOC(=O)c1ccc(NC(=O)c2ccc(NC(=O)c3ccccc3)cc2)cc1 | -1 | -21 | -1 | 11 | 9 | 7
COC(=O)c1cc(NC(=O)Nc2cccc(Cl)c2)ccc1Cl | 2 | -12 | 12 | -2 | 14 | -3
COc1cccc(C(=O)Nc2cccc(C(C)=O)c2)c1 | -2 | -7 | 0 | 4 | 3 | -12
CC(C)OC(=O)c1ccc(NC(=O)c2ccccc2)cc1 | 0 | · | 0 | -15 | 5 | 35*
COc1cccc(C(=O)Nc2ccc(C3CC3(Cl)Cl)cc2)c1 (centres undefined) | -2 | · | -4 | 2 | 13 | 21*
COC(=O)c1cc(NC(=O)c2ccc(-c3ccccc3)cc2)ccc1Cl | 9.3* | -15 | 9 | 2 | 16 | 7
COc1ccc(C(=O)Nc2ccc(C(=O)OCC(=O)c3ccccc3)cc2)cc1 | 0 | -21 | 12 | 3 | 5 | -5
COc1cccc(C(=O)COC(=O)c2ccc(NC(=O)c3ccccc3)cc2)c1 | 8.7* | -12 | -2 | 0 | -3 | 1
CC(C)(C)c1ccc(C(=O)Cn2nc(C(=O)O)c3ccccc3c2=O)cc1 | 8.7* | · | 7 | 1 | 2 | 2
O=C(Cn1c(-c2ccccc2Cl)nc2ccccc21)Nc1cccc(Cl)c1 | -1 | · | -2 | -2 | 6 | 21*
Cn1nccc1C(=O)N1CCN(c2ccccc2Cl)CC1 | -3 | -18 | -13 | 1 | -10 | 22
Cc1cccc(N2CCN(C(=O)c3ccnn3C)CC2)c1C | -2 | -10 | -9 | 3 | 10 | 25*
CO[C@@H]1CN(C)C(=O)c2cc(NC(=O)Nc3cccc(F)c3)ccc2OC[C@@H](C)N(C(=O)Nc2cccc(F)c2)C[C@H]1C | · | 4 | · | · | · | ·
O=C(Nc1cc(Cl)cc(Cl)c1)c1ccc(Cn2c(=O)[nH]c3ccsc3c2=O)cc1 | 20* | 15 | · | 7 | · | -5
O=C(CCN1CCCCC1)NCC[C@H]1CC[C@H](NC(=O)Cc2cccnc2)[C@H](CO)O1 | · | 107* | · | · | · | ·
O=C(NCC[C@H]1CC[C@H](NC(=O)c2cccnc2)[C@H](CO)O1)Nc1ccc(F)cc1 | · | 203* | · | · | · | ·
O=C(Cc1ccncc1)NCC[C@H]1CC[C@H](NC(=O)C2CCCC2)[C@H](CO)O1 | · | 196* | · | · | · | ·
C[C@H]1CN([C@@H](C)CO)C(=O)Cc2cc(NS(C)(=O)=O)ccc2O[C@H]1CN(C)C(=O)Nc1ccc(C(F)(F)F)cc1 | · | -1 | · | · | · | ·
COc1cccc(C(=O)N2C[C@H]3[C@@H](c4ccccc42)[C@H](CO)N3Cc2ccccc2F)c1 | · | -7 | · | · | · | ·
O=C(O)c1ccc(CSc2nnc(SCc3ccccc3)s2)cc1 | -1 | -4 | -1 | 6 | 5 | 11
O=C(O)c1ccc(CSC2CCCCC2)cc1 | 1 | -15 | 11 | 3 | 4 | 22*

A few values from the list.
COC(=O)c1cccc(NC(=O)c2cccc(OC)c2)c1 @ ARFGAP1 inhibitor = -8
O=C(O)c1ccc(CSc2nnc(SCc3ccccc3)s2)cc1 @ CendR NRP1 mod = 11
COc1cccc(C(=O)Nc2cccc(C(C)=O)c2)c1 @ CendR NRP1 mod = -12
CSc1ccc(C2C(C(=O)c3ccco3)=C(O)C(=O)N2c2nnc(SC)s2)cc1 (centres undefined) @ Yeast UUG start = -16
O=C(Cc1ccncc1)NCC[C@H]1CC[C@H](NC(=O)C2CCCC2)[C@H](CO)O1 @ Yeast UUG start = 196*

(continued)
| mol | MC4R ag barr | Yeast UUG start | ASAP1 GAP inh | MC4R antagonist | ARFGAP1 inhibitor | CendR NRP1 mod |
| --- | --- | --- | --- | --- | --- | --- |
| Cc1ccn(C(=O)c2cc3c(C)nn(-c4ccccc4)c3s2)n1 | -3 | -15 | · | 0 | · | 28* |
| Cc1nn(-c2ccccc2)c2sc(C(=O)n3cccn3)cc12 | -2 | -9 | 1 | 9 | 5 | -10 |
| C[C@@H]1CN([C@H](C)CO)C(=O)Cc2cc(NS(=O)(=O)c3ccc(Cl)cc3)ccc2O[C@H]1CN(C)S(=O)(=O)c1ccccc1 | · | 8 | · | · | · | · |
| O=[N+]([O-])/C=C/c1c(OCc2ccccc2)ccc2ccccc12 | 2 | 286* | · | 12 | · | -6 |
| O=C(/C=C/c1cccnc1)c1ccc([N+](=O)[O-])cc1 | -1 | -13 | 10 | 11 | 5 | 8 |
| O=C(C=Cc1ccccc1)c1ccc([N+](=O)[O-])cc1 | -2 | 28 | -13 | 17 | -11 | 18* |
| C[C@@H]1CCCCO[C@H](CN(C)S(=O)(=O)c2ccc(F)cc2)[C@H](C)CN([C@@H](C)CO)C(=O)c2cc(NC(=O)CCCN(C)C)ccc2O1 | · | 24 | · | · | · | · |
| CC(C)NC(=O)N(C)C[C@@H]1Oc2ccc(NC(=O)Nc3ccccc3)cc2C(=O)N([C@H](C)CO)C[C@@H]1C | · | -4 | · | · | · | · |
| Cc1noc(C)c1S(=O)(=O)N(C)C[C@H]1OCCCC[C@@H](C)Oc2ccc(NS(=O)(=O)c3cn(C)cn3)cc2C(=O)N([C@H](C)CO)C[C@@H]1C | -1 | 8 | 6 | 12 | -9 | 26* |
| C[C@H]1CN([C@@H](C)CO)C(=O)c2cc(NC(=O)NC3CCCCC3)ccc2O[C@@H]1CN(C)C | · | 1 | · | · | · | · |

Bioassay records deposited in PubChem by several laboratories.
